Measurements from PubChem BioAssay AID521 (Sanford-Burnham Center for Chemical Genomics, 2006).
Values joined by “and” are separate entries in the source; they are usually repeats but may differ in a detail not shown here. Equal values may be shown once. The entries are a selection whose mix differs from that of the whole data set. Active and inactive are the calls of the source. Cut-off read from the data, not from the text of the source: active = inhibition above about 50%; inconclusive = no clear call, values can overlap the other calls; inactive = below that.

The chains behind the UniProt entries cited, without tags or fusion partners.
UniProt P35236, whole entry: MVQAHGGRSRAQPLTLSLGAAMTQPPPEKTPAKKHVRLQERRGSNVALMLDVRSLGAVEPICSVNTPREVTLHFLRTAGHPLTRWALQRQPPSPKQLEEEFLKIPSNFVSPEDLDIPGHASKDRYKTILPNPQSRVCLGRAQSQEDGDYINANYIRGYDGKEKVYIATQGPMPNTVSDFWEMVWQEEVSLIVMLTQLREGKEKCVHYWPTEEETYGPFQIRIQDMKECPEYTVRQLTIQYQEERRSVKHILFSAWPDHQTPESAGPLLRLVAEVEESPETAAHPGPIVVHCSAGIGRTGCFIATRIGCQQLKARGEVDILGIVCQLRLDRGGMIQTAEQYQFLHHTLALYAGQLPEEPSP

Molecular target: Tyrosine-protein phosphatase non-receptor type 7 (Homo sapiens) (UniProt P35236)
Assay: HePTP tyrosine phosphatase activity blockers – biochemical, absorbance, leukemia target, primary screen (AID 521);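 note: plate controls were vehicle for no effect and reference inhibitor for full effect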
Conditions: recombinant HePTP phosphatase activity, OD absorbance; at 20 µM; stronger effect = higher value

Question: For `CP(=S)(Nn1cnnc1)Oc1ccccc1` (centres undefined), which inhibition is on record?
Answer: The inhibition was inactive: 11.9%.

Question: For `CN(C)CCOC(=O)C(O)(c1ccccc1)c1ccccc1`, which inhibition is on record?
Answer: The inhibition was inactive: -8.2%.

Question: With `CCOP(C)(=S)SCC(=O)NC(C)C(=O)O` (centres undefined) as the molecule, how does the inhibition read?
Answer: The inhibition was inactive: -10.5% and inactive: -2.6%.

Question: How did the inhibition turn out when `CP(=O)(Oc1ccccc1F)Oc1ccccc1F` was run?
Answer: The inhibition was inactive: 5.1%.

Question: Which inhibition does the source give for `CP(=O)(NC(=O)Nc1ccccc1)Oc1ccccc1` (centres undefined) here?
Answer: Its inhibition is inactive: -12.5%.

Question: How did the inhibition turn out when `COc1ccccc1OP(C)(=O)Nc1ccc(C)cc1` (centres undefined) was run?
Answer: The inhibition was inactive: 9.7%.

Question: How did the inhibition turn out when `Cc1ccc(NP(C)(=O)Oc2ccccc2)c(C)c1` (centres undefined) was run?
Answer: Its inhibition is inactive: -3.2%.

Question: How did the inhibition turn out when `Cc1ccc(C)c(NP(C)(=O)Oc2ccccc2)c1` (centres undefined) was run?
Answer: The inhibition was inactive: 12.7%.

Question: With `CP(=O)(Oc1ccc(Cl)cc1)Oc1ccc(Cl)cc1` as the molecule, how does the inhibition read?
Answer: The inhibition was inactive: -2.2%.

Question: With `CP(=O)(Oc1ccccc1)Oc1ccccc1` as the molecule, how does the inhibition read?
Answer: The inhibition was inactive: 5.4%.

Question: With `Cc1nc2ccc3ccccc3c2s1.O=[N+]([O-])c1cc([N+](=O)[O-])c(O)c([N+](=O)[O-])c1` as the molecule, how does the inhibition read?
Answer: Its inhibition is inactive: 7%.

Question: Which inhibition does the source give for `CN(C)CCOC(=O)C(O)(c1ccccc1)C1CCCCC1` (centres undefined) here?
Answer: Its inhibition is inactive: -6.2%.

Question: With `CP(=O)(Oc1ccc(F)cc1)Oc1ccc(F)cc1` as the molecule, how does the inhibition read?
Answer: Its inhibition is inactive: 11.5%.

Question: For `CP(=O)(Nc1ccc2c(c1)OCCO2)Oc1ccccc1` (centres undefined), which inhibition is on record?
Answer: The inhibition was inactive: 22.1%.

Question: For `Cc1ccccc1NP(C)(=O)Nc1ccccc1C`, which inhibition is on record?
Answer: The inhibition was inactive: 2.1%.

Question: For `CCOP(C)(=S)SCC(=O)NC(C)(CC)C(=O)O` (centres undefined), which inhibition is on record?
Answer: Its inhibition is inactive: 7.3%.

Question: How did the inhibition turn out when `CP(=O)(Nc1ccccc1F)Oc1ccccc1` (centres undefined) was run?
Answer: The inhibition was inactive: 5.3%.

Question: With `Cc1nc2ccc3ccccc3c2o1.O=[N+]([O-])c1cc([N+](=O)[O-])c(O)c([N+](=O)[O-])c1` as the molecule, how does the inhibition read?
Answer: The inhibition was inactive: -0.3%.

Question: Which inhibition does the source give for `COc1ccccc1OP(C)(=O)Nc1ccc(C)c(C)c1` (centres undefined) here?
Answer: Its inhibition is inactive: 3.2%.

Question: For `CP(=O)(Nc1ccccn1)Oc1ccccc1` (centres undefined), which inhibition is on record?
Answer: The inhibition was inactive: -4.8%.

Question: Which inhibition does the source give for `CCc1ccc(OP(C)(=O)O)cc1` here?
Answer: Its inhibition is inactive: 0.3%.

Question: For `CCN(CC)CC(O)COC(=O)C(O)(c1ccccc1)C1CCCCC1` (centres undefined), which inhibition is on record?
Answer: The inhibition was inactive: -0.8%.

Question: How did the inhibition turn out when `COc1ccccc1OP(C)(=O)Nc1c(C)n(C)n(-c2ccccc2)c1=O` (centres undefined) was run?
Answer: The inhibition was inactive: -6.2%.

Question: For `CP(=O)(Oc1ccccc1)N1CCOC1=O` (centres undefined), which inhibition is on record?
Answer: Its inhibition is inactive: 0.5%.
